Source: patent US20220160716A1 (SORBONNE UNIVERSITE, priority 2019, published 2022)

Chains of the proteins cited; added tags and fusions are not shown.
UniProt P49841, whole entry: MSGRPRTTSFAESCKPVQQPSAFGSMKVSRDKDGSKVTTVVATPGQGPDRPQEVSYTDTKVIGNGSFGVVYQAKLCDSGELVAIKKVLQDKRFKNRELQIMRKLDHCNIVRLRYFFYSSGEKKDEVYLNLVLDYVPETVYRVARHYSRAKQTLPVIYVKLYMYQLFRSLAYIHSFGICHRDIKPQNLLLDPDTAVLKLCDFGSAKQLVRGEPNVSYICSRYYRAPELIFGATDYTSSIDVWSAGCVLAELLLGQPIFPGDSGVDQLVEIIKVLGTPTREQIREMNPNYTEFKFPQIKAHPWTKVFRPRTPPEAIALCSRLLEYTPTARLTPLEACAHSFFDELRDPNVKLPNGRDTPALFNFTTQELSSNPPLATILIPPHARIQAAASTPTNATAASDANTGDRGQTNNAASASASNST

Assays:
DYRK1A = DYRK1A (Homo sapiens, UniProt Q13627); assay: Protein kinase catalytic activity assay, DYRK1A; type: biochemical; conditions: read-out: IC50 of protein kinases, DYRK1A
GSK3 = GSK3 (Homo sapiens, UniProt P49841); assay: Protein kinase catalytic activity assay, GSK3; type: biochemical; conditions: read-out: IC50 of protein kinases, GSK3

Q: What does the source list for `CC(Nc1nc(NCc2ccccc2)c2ncn(C(C)C)c2n1)C(=O)O` (centres unmarked)?
A: pIC50 (DYRK1A): < 5.00; pIC50 (GSK3): < 5.00

pIC50: −log10 of the molar value.
